# Reference: US11091559B2, “Anti-ALK antibodies and methods for use thereof” (Celldex Therapeutics, Inc., priority 2015, dated 2021)
# Test system: NB1 cells
# Assay: Crizotinib titration and co-titration with ALK antibodies, killing of NB1 cells
# Assay type: cell-based, human
# Settings: titration of crizotinib alone
compound,measurement,value
"C[C@@H](Oc1cc(-c2cnn(C3CCNCC3)c2)cnc1N)c1c(Cl)ccc(F)c1Cl [crizotinib, reference compound]",killing of NB1 cells,dose-dependent killing
